Source: PubChem
PTHR1 ag = PTHR1 (human) receptor agonism | Q03431 | Potency, µM (series often up to 115 µM), without a hit: at the highest dose activation, usual class: activators | HEK293 GP2 PTHR1 cells, GloSensor cAMP luminescence, 1 h | 410,000 compounds, 0.075% hits | AID 743266; further: potency means the concentration at half of the fitted maximal effect; nearly all actives have a fitted effect of over 55% in size
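HEK-293-derived GP2 cells expressing PTHR1 and a GloSensor cAMP reporter, 3,000/well, plated overnight, given luciferin plus IBMX (each 0.5 mM as added) for 1 h at 37 °C, then compound for 1 h at 37 °C. Luminescence was read after 15 min at room temperature.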
HEK293 tox = cytotoxicity in counter-screen for GLP-1R inverse agonists; AID 624418; 410,000 compounds, 0.13% hits; HEK293 cAMP-luciferase reporter cells, luminescence, 24 h; Potency, µM (series often up to 38.3 µM), for the others: at the highest dose activity change, negative = inhibition, most hits filed as inhibitors;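 further: loss of luciferase light is scored as toxicity; potency means the concentration at half of the fitted maximal effect; on the % scale 0 is the no-effect control and ±100 the full control effect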
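MLSMR compounds, 24 hr on cells at 37 deg C/5% CO2; luminescence after luciferase reagent (12 min RT). Inhibition counted as the undesired cytotoxic outcome.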
miR-21 reporter = raises the signal of a miR-21 reporter; 340,000 tested, under 10 active; HeLa miR-21 FLuc reporter, luciferase, 48 h; Potency, µM (highest dose often 38.3 µM), without a hit: top-dose reporter change, positive = more light; active = well fitted rising curve with a large enough effect; inconclusive = small, poorly fitted or top-dose-only effect; inactive = no such curve, though single readings can be large or run the other way;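 also: % of control where 0% means no effect; miR-21 action dims this reporter so a rising signal means less miR-21 action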
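HeLa miR-21-FLuc reporter line, endogenous miR-21; 2000 cells/well in DMEM/10% FBS; compound titration up to ~40uM final, 48 h, 37 degree Celsius; luciferase detection reagent, 15 min lysis, CCD luminescence.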
GLP-1R agonist = agonists of human GLP-1 receptor; P43220; Potency, µM (titrated, usually from 45.6 µM), for inactives: at the top dose activation, hits mostly activators; 380,000 compounds, 0.007% hits; AID 624172; HEK293 GLP-1R CRE-luciferase, luminescence, 4-6 h; cells express a hypersensitive GLP-1R form; further: potency means the concentration at half of the fitted maximal effect; % of control where 0% means no effect
GLP1R inv ag = inverse agonists of human GLP-1 receptor. P43220. HEK293 GLP-1R CRE-luciferase, luminescence, 24 h; GLP-1R form is constitutively active. Potency, µM (series often up to 38.3 µM), without a hit: at the highest dose activity change, negative = inhibition, usual class: inhibitors. 410,000 compounds, 1.6% hits. AID 624417; further: potency means the concentration at half of the fitted maximal effect; on the % scale 0 is the no-effect control and ±100 the full control effect; nearly all actives have a fitted effect of over 55% in size
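Inverse agonism was detected as reduced cAMP-driven luciferase luminescence after 24 h compound treatment. The cells were HEK293 clones expressing constitutively active human GLP-1R with the reporter. Reporter-only and GPR119 cell lines served as counterscreen controls.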
Pin1 inh = human Pin1 inhibition | Q13526 | Pin1 FP peptide displacement, HiFluor488, 10 min | Potency, µM (titrated, usually from 115 µM), for inactives: top-dose activity, negative = inhibition, actives largely listed as inhibitors | 390,000 compounds, 0.009% hits | AID 504891; active means well fitted inhibition curve with a large enough effect in the polarisation, with a control signal flat, not every such curve was filed as active; inconclusive means small, poorly fitted or top-dose-only effect, or effect the other way, or a change in a side signal; inactive means no such curve, though single readings can be large or run the other way; the % refers to the polarisation; further: potency means the concentration at half of the fitted maximal effect; on the % scale 0 is the no-effect control and ±100 the full control effect
The depositor's hits bear a star; i = inactive; ? = inconclusive; / = no result; [ ] = dose if it differs, or a comment. Hits are enriched below; roughly 1.7% of the tested compounds scored in any of these assays. Unless noted, the call rests on the fitted dose curve; in most records, active means well fitted curve in the direction sought with a large enough effect; inconclusive means small, poorly fitted or top-dose-only effect, or another doubt; inactive means no such curve, though single readings can be large; an effect the other way counts as inactive or inconclusive.

(1) CCOc1ccccc1NC(=O)CN1C(=O)CC(c2ccco2)Sc2ccccc21 (stereo not given)
(2) Cc1cccc(NS(=O)(=O)c2ccc3[nH]c4c(c3c2)CCCCCC4)c1
(3) Cc1ccccc1NS(=O)(=O)c1ccc2[nH]c3c(c2c1)CCCCC3
(4) Cc1cc(S(=O)(=O)N2CCN(Cc3noc(CCC(=O)N4CCCCC4)n3)CC2)ccc1F
(5) CCCCCCN1C[C@H](n2cc(-c3ccc(F)cc3)nn2)[C@@H](O)C[C@@H]1c1ccccc1
(6) CCCCCCN1C[C@H](O)[C@@H](n2cc(-c3ccc(F)cc3)nn2)C[C@@H]1c1ccccc1

assay / compound	1	2	3	4	5	6
PTHR1 ag	-16%	-92%	-33%	-3%	-15%	-17%
HEK293 tox	-18%	?	-12%	12%	3%	-18%
miR-21 reporter	21%	14%	20%	1%	/	/
GLP-1R agonist	6%	/	0%	/	-3%	-1%
GLP1R inv ag	?	8.9µM*	10µM*	11%	-19%	5µM*
Pin1 inh	24%	3%	4%	-1%	/	/

Structural class: the compounds so far with fluorine
(4) Cc1cc(S(=O)(=O)N2CCN(Cc3noc(CCC(=O)N4CCCCC4)n3)CC2)ccc1F
(5) CCCCCCN1C[C@H](n2cc(-c3ccc(F)cc3)nn2)[C@@H](O)C[C@@H]1c1ccccc1
(6) CCCCCCN1C[C@H](O)[C@@H](n2cc(-c3ccc(F)cc3)nn2)C[C@@H]1c1ccccc1

assay / compound	4	5	6
PTHR1 ag	-3%	-15%	-17%
HEK293 tox	12%	3%	-18%
miR-21 reporter	1%	/	/
GLP-1R agonist	/	-3%	-1%
GLP1R inv ag	11%	-19%	5µM*
Pin1 inh	-1%	/	/

The list continues:
(7) CCCCCC(=O)N1C[C@H](n2cc(COC(=O)c3ccccc3)nn2)[C@@H](O)C[C@@H]1c1ccc(C)cc1
(8) CCCCCC(=O)N1C[C@@H](n2cc(-c3ccc(F)cc3)nn2)[C@H](O)C[C@@H]1c1ccc(OC)cc1
(9) CCCCCC(=O)N1C[C@@H](n2cc(-c3ccc(F)cc3)nn2)[C@H](O)C[C@@H]1c1ccc(C)cc1
(10) CCc1ccc(Cn2c(CNS(=O)(=O)c3ccc4c(c3)CCCC4)nc3cccnc32)cc1
(11) CC(C)c1ccc(S(=O)(=O)NCc2ccc3c(c2)CCN3C(=O)c2ccccc2)cc1
(12) C=CCC(O)[C@H](Cc1cnc2ccccc2c1)[C@H](/C=C/CCCC)c1ccccc1 (stereo not given in full)

assay / compound	7	8	9	10	11	12
PTHR1 ag	-52%	-49%	-93%	-37%	-22%	/
HEK293 tox	-14%	-11%	-27%	-3%	-1%	/
miR-21 reporter	/	/	/	-6%	22%	/
GLP-1R agonist	-4%	1%	5%	/	/	/
GLP1R inv ag	10µM*	11µM*	?	?	?	/
Pin1 inh	/	/	/	13%	23%	5%

(13) Clc1ccc(C2CC(c3ccco3)n3ncnc3N2)cc1Cl (stereo not given)
(14) Clc1ncc(C#Cc2ccccc2)c2ncncc12
(15) CCCOC(=O)/C(=C\C=C\c1ccccc1)NC(=O)c1ccccc1
(16) O=S(=O)(Nc1cc(Br)cc2cccnc12)c1ccccc1
(17) Cc1ccc(SCC(=O)N2c3ccccc3Sc3ccccc32)cc1
(18) COc1cccc(C(=O)COC(=O)c2cc(-c3cccs3)nc3ccccc23)c1

assay / compound	13	14	15	16	17	18
PTHR1 ag	-13%	/	i	/	i	i
HEK293 tox	-16%	/	10%	/	22%	-3%
miR-21 reporter	1%	/	-2%	/	7%	-9%
GLP-1R agonist	5%	/	22%	/	2%	/
GLP1R inv ag	10µM*	/	2.5µM*	/	7.9µM*	-27%
Pin1 inh	-10%	13%	-1%	4%	-3%	?

(19) COc1cccc(CN(C)C(=O)c2cc(-c3cccs3)nc3ccccc23)c1
(20) Cc1ccccc1NC1=C/C(=N\S(=O)(=O)c2ccc(C(=O)O)cc2)c2ccccc2C1=O
(21) O=C(O)c1ccc(S(=O)(=O)/N=C2\C=C(Nc3ccccc3F)C(=O)c3ccccc32)cc1
(22) CCCOc1ccc(C(=O)N(Cc2ccc(Cl)cc2)Cc2ccco2)cc1
(23) CCOc1ccc(NC(=S)N(Cc2ccc(Cl)cc2)Cc2ccco2)cc1
(24) Cc1ccc(O)c(N=Nc2nccs2)c1

assay / compound	19	20	21	22	23	24
PTHR1 ag	-19%	-31%	-37%	-30%	-9%	-15%
HEK293 tox	?	?	?	1%	-17%	?
miR-21 reporter	23%	-15%	50%	1%	-3%	/
GLP-1R agonist	3%	-2%	-9%	/	-3%	1%
GLP1R inv ag	6.3µM*	8.9µM*	?	?	11µM*	7.1µM*
Pin1 inh	6%	?	?	3%	0%	-5%

(25) O=C(Cc1ccccc1)Nc1sc2c(c1C(=O)Nc1cccc(Cl)c1)CCCC2
(26) CC(C)(C)OC(=O)N1CCC(c2c(C(=O)Nc3cccc(C(F)(F)F)c3)cnn2-c2ccc(F)cc2F)CC1
(27) CC(C)(C)OC(=O)N1CCC(c2c(C(=O)Nc3ccc4c(c3)OCCO4)cnn2-c2ccc(F)cc2F)CC1
(28) O=C(CSc1cccc[n+]1[O-])c1ccccc1Br
(29) Cc1cc(C(=O)CSc2cccc[n+]2[O-])c(C)n1-c1ccc(Br)cc1
(30) COc1ccc(S(=O)(=O)Nc2ccc(Nc3ccccc3)cc2)cc1

assay / compound	25	26	27	28	29	30
PTHR1 ag	/	i	-10%	4%	/	-23%
HEK293 tox	/	4%	-10%	0.79µM*	/	-3%
miR-21 reporter	/	28%	-1%	-17%	-33%	/
GLP-1R agonist	/	/	/	3%	/	0%
GLP1R inv ag	/	5µM*	?	?	/	7.1µM*
Pin1 inh	18%	19%	11%	3%	/	-3%

(31) COc1ccc(S(=O)(=O)Nc2ccccc2)cc1
(32) COc1cccc(-c2nnc3n2N=C(c2c(OC)cccc2OC)CS3)c1
(33) COc1cc(SC)ccc1C(=O)Nc1ccc(Br)cn1
(34) COc1cc(SC)ccc1C(=O)Nc1ncc(C)s1
(35) Cc1noc(C)c1COc1cccc(C(=O)OCCOc2ccc(F)cc2)c1
(36) CN(C(=O)Cn1c(=O)n(CCC(=O)NCc2ccc3c(c2)OCO3)c(=O)c2sccc21)c1ccccc1

assay / compound	31	32	33	34	35	36
PTHR1 ag	i	/	-33%	-9%	-82%[57.5 µM]	i
HEK293 tox	10%	/	2%	-14%	18%	-4%
miR-21 reporter	/	/	-15%	?	-5%	-5%
GLP-1R agonist	0%	/	-6%	-16%	11%	/
GLP1R inv ag	-21%	/	?	10µM*	10µM*	4%
Pin1 inh	-9%	1%	0%	-7%	?	-1%

(37) Cc1cc(OC(C)C(=O)N(Cc2ccco2)Cc2ccco2)cc(C)c1Cl (stereo not given)
(38) Cc1ccc(C)c(CSc2nc(-c3ccccc3F)nc3c2Cc2c(CO)cnc(C)c2O3)c1
(39) COc1ccc2cc(C(=O)N/N=C/c3sc4ccccc4c3O)ccc2c1
(40) COc1ccc(C(=O)N/N=C/c2sc3ccccc3c2O)cc1
(41) CNCC(=O)NC(CCCN=C(N)N)C(=O)NC(C(=O)NC(Cc1ccc(O)cc1)C(=O)NC(C(=O)NC(Cc1cnc[nH]1)C(=O)N1CCCC1C(=O)NC(C)C(=O)O)C(C)C)C(C)C (stereo not given)
(42) Cc1ccc2c(c1)C1(C=CC(=O)C=C1)CC(=O)N2C
(43) CCCCCCN(C(=O)CCCN1C(=O)NC(c2ccc(-c3ccccc3)cc2)C(C(=O)OCc2ccccc2)=C1C)C(C)C(=O)NCCCC (stereo not given)

assay / compound	37	38	39	40	41	42	43
PTHR1 ag	-24%	?	i	-9%	/	/	i
HEK293 tox	1%	-4%	22%	?	/	/	-10%
miR-21 reporter	14%	-1%	-9%	-7%	/	/	/
GLP-1R agonist	/	/	-6%	-1%	3%	/	9%
GLP1R inv ag	10µM*	-2%	?	1.6µM*	/	/	11µM*
Pin1 inh	1%	-2%	?	?	/	-1%	9%
